Each structure is given as a SMILES string. The list shows a part of the results, in another mix than the full data. The source made the active and inactive calls.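 The calls were made as follows: active = inhibition above about 70% (limit read from the data); inactive = the rest.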

Chains of the proteins cited; added tags and fusions are not shown. Lines headed by an entry give the natural chain unless they say otherwise; changes in a name come on top.
UniProt P63103: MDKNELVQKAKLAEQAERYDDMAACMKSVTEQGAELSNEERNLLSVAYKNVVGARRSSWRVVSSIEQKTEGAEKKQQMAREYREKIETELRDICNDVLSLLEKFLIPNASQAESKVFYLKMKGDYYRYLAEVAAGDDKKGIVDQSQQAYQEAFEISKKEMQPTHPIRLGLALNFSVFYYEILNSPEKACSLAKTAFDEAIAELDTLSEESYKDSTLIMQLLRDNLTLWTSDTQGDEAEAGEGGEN

The test has as its target 14-3-3 protein zeta/delta (Bos taurus) (UniProt P63103). Kind of test: disruptors of 14-3-3 zeta phospho-Bad complex – biochemical, TR-FRET, bovine 14-3-3 zeta, primary screen (AID 781).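 Also: 0% = full 14-3-3 plus peptide FRET controls and 100% = background without 14-3-3.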 The note with it: TR-FRET 14-3-3zeta/Dy647-pBad peptide displacement, 1 h; at 21.7 µM; active compounds read high. For orientation: Time-resolved FRET reads energy transfer from a long-lived donor to a nearby acceptor.
For orientation: inhibition means the change of the read-out against control, counted positive when it falls. Turning to `O=P(Nc1nccs1)(Oc1ccccc1)Oc1ccccc1`, the inhibition is inactive: -8.49%.

Regarding `O=P(Nc1nccs1)(c1ccccc1)c1nc2ccccc2s1` (stereo unspecified), the inhibition is inactive: 37.6%.

With `CCOP1(=S)c2c(C)nn(CCC#N)c2N=C(c2ccccc2F)N1C` (stereo unspecified), the inhibition is inactive: 1.97%.

Turning to `CS(=O)(=O)c1cc([N+](=O)[O-])c2no[n+]([O-])c2c1`, the inhibition was inactive: 7.75%.

For `Nc1ccccc1[As](=O)(O)c1ccccc1`, the inhibition is inactive: -4.32%.

With `O=C(O)COc1ccc([As](=O)(O)O)cc1[N+](=O)[O-]`, the inhibition is inactive: 7%.

`NC(=O)Nc1ccc([As](=O)(O)O)cc1`: the inhibition is inactive: -6.1%.

As to `CN(C(=O)Cc1ccccc1)[C@@H]1CC[C@]2(CCCO2)C[C@H]1N1CCCC1`, the inhibition is inactive: -5.67%.

As for `CCOP1(=S)c2c(C)nn(CCC#N)c2N=C(c2ccc(F)cc2)N1C` (stereo unspecified), the inhibition was inactive: -5.01%.

`O=[N+]([O-])c1ccc2c(c1)nnn2O`: the inhibition was inactive: 33.1%.

`CC1CCC(C(C)C)C(OP(=O)(Nc2ccccn2)c2ccccc2)C1` (stereo unspecified): the inhibition was inactive: -2.69%.

As for `Cc1nn(-c2ccccc2)c2c1P(=O)(N1CCOCC1)N(C)C(c1ccccc1)=N2` (stereo unspecified), the inhibition is inactive: -9.32%.

`CN(C)C1(CNC(=O)c2ccc(S(C)(=O)=O)cc2)CCCCC1`: the inhibition is inactive: -0.72%.

Turning to `O=C(/C=C/c1ccccc1)OC1CN2CCC1CC2` (stereo unspecified), the inhibition was inactive: -1.71%.

On to `O=P1(Nc2ncccn2)COc2ccccc2OC1`, for which the inhibition was inactive: -9.76%.

Consider `Nc1cccc([As](=O)(O)c2ccccc2)c1`, for which the inhibition was inactive: -0.44%.

For the molecule `O=[As](O)(c1cccs1)c1cccs1`, the inhibition is inactive: -2.64%.

With `Cc1ccc(OCC(=O)OC2CN3CCC2CC3)cc1` (stereo unspecified), the inhibition is inactive: -0.4%.

For the molecule `O=P1(Nc2ccc(Br)cn2)COc2ccccc2OC1`, the inhibition was inactive: -2.69%.

As for `O=P1(Nc2ccccn2)COc2ccccc2OC1`, the inhibition was inactive: 7.74%.

`CCOP(=O)(Nc1ccc(C)cn1)OCC`: the inhibition was inactive: 2.2%.

Consider `CC(C)(C)C(=O)NC(Sc1ncccn1)C(Cl)(Cl)Cl` (stereo unspecified), for which the inhibition was inactive: -15.7%.

Take `Clc1n[nH]nc1-c1nn[nH][15n]1`: the inhibition is inactive: 22.7%.

As to `CC(C)/C=N\N=C(\N)N[N+](=O)[O-]`, the inhibition was inactive: -15.7%.

Consider `CN(C(=O)Cc1ccc(Cl)c(Cl)c1)[C@@H]1CCCC[C@H]1N1CCCC1`, for which the inhibition is inactive: -2.47%.

For `O=[As](O)(c1ccccc1Br)c1ccccc1Br`, the inhibition is inactive: 1.3%.
